Data from patent US11535611B2, “Pyrazolo[3,4-B]pyridines and imidazo[1,5-B]pyridazines as PDE1 inhibitors” (H. Lundbeck A/S, priority 2017, dated 2022).

Sequences of proteins named here, by UniProt entry; tags and fusion partners are left off.
UniProt Q14123, whole entry: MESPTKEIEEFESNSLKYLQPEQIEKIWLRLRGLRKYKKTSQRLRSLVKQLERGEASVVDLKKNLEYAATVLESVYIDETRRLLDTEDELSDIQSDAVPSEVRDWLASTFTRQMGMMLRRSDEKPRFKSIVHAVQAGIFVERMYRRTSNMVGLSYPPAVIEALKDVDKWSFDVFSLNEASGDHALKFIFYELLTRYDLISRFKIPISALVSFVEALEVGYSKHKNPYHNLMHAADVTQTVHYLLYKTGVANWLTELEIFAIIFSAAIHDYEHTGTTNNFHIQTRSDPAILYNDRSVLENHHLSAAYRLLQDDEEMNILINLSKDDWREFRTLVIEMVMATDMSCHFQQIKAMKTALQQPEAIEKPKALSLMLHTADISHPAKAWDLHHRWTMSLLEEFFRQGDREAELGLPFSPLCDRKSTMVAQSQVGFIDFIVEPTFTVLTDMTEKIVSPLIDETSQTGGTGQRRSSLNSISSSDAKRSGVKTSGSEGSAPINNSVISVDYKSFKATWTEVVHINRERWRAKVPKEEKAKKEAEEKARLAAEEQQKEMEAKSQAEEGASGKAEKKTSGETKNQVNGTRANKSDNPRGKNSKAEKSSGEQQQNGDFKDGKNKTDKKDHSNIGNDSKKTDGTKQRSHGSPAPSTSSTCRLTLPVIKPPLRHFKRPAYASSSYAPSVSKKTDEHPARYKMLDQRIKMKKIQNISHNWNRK
UniProt Q01064, whole entry: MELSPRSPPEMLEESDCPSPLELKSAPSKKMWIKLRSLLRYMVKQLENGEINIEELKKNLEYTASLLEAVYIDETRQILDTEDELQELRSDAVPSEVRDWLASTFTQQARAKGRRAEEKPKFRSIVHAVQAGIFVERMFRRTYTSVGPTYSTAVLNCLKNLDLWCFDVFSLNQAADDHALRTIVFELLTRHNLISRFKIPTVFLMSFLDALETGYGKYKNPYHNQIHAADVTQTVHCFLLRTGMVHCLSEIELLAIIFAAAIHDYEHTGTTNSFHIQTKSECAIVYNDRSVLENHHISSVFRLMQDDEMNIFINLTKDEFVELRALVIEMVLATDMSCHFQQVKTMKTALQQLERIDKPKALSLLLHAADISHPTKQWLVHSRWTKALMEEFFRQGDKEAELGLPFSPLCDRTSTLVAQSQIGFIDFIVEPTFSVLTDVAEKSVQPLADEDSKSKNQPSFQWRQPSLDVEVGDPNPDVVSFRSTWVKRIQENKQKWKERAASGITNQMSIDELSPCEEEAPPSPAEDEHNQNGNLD
UniProt P54750, whole entry: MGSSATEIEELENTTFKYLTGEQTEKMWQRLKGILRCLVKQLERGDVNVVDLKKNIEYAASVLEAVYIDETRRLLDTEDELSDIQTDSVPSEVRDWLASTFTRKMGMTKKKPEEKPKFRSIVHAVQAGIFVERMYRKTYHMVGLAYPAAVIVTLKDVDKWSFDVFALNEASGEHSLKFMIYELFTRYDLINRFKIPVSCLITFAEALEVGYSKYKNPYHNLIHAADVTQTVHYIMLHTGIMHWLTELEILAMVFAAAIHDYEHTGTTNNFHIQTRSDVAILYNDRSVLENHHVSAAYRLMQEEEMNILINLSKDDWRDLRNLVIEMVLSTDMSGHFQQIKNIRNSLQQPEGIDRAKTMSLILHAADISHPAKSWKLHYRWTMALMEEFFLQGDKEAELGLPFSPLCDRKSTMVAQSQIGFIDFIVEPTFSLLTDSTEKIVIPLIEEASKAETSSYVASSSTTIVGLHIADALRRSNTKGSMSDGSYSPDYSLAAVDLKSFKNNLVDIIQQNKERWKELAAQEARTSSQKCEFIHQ

Tests used:
[1] = target: PDE1C (Homo sapiens (Human), UniProt Q14123); test: PDE1 inhibition assay, PDE1C; format: biochemical; conditions: read-out: PDE1 C, IC50; 15 nM tritium labelled cAMP, 1 hr at room temperature, SPA beads
[2] = target: PDE1B (Homo sapiens (Human), UniProt Q01064); test: PDE1 inhibition assay, PDE1B; conditions: read-out: PDE1 B, IC50; 15 nM tritium labelled cAMP, 1 hr at room temperature, SPA beads
[3] = target: PDE1A (Homo sapiens (Human), UniProt P54750); test: PDE1 inhibition assay, PDE1A; format: biochemical; conditions: @ 10 μM compound

**Q.** Which IC50 [1] does the source give for `CCOc1cncc(-c2cc(N[C@@H]3CCOC3)c3c(cnn3C(C)C)n2)c1` here?
**A.** 2.92 µM

**Q.** What about the IC50 [2] of the same compound?
**A.** 1.57 µM

**Q.** What about the “PDE1 A, % inhibition @ 10 μM” value [3] of the same compound?
**A.** 51%
